# Experimental data published in PMC9899896, “Application of a new approach methodology (NAM)-based strategy for genotoxicity assessment of data-poor compounds” (Frontiers in Toxicology, 2023).
# Test system: human lymphoblastoid TK6 cells
smiles,measurement,value
"CCN(CC)c1cccc(O)c1 [NSACB 4, 3-diethylaminophenol]",MicroFlow %MN response (text),concentration-response pattern at the lowest concentrations before decreasing or plateauing at the higher concentrations
same,MicroFlow summary classification (MN induction),+
